{"source": "patent US11371077B2", "about": "“High throughput cell-based screening for aptamers” (MeiraGTx UK II Limited, priority 2016, dated 2022)", "test_system": "yxj-A6 riboswitch", "format": "cell-based", "conditions": "Prestwick library compounds at 100 μM, HEK 293", "source_text": "Riboswitches were constructed as described in PCT/US2016/016234 (in particular Examples 3 to 6), incorporated herein by reference. A truncated human beta-globin intron sequence was synthesized and inserted in the coding sequence of a firefly luciferase gene. A mutant human DHFR exon 2 was synthesized and inserted in the middle of this truncated beta-globin intron sequence using Golden gate cloning strategy. Aptamers including xpt-G/A^1, ydhl-G/A^2, yxj^3, add^4, gdg6-G/A^5 (citations for the aptamers are incorporated herein by reference) were synthesized as oligonucleotides (“oligos”) with 4 nucleotide overhang at the 5′ end that are complementary to two different BsaI sites individually (IDT), annealed and ligated to BsaI-digested mDHFR-Luci-acceptor vector.\n3.5×10^4 HEK 293 cells were plated in a 96-well flat bottom plate the day before transfection. Plasmid DNA (500 ng) was added to a tube or a 96-well U-bottom plate. Separately, TransIT-293 reagent (Mirus; 1.4 μL) was added to 50 μL Opti-mem I media (Life Technologies), and allowed to sit for 5 minutes at room temperature (RT). […]\n24 hours after media change, plates were removed from the incubator, and equilibrated to RT for several minutes on a lab bench, then aspirated. […] Following a 5 min incubation at RT, luminescence was measured using a Tecan machine with 500 mSec read time. […]"}
{"substance": "Pirlindole mesylate", "values": [{"measurement": "Fold Induction of luciferase activity", "value": 3.2, "unit": "fold"}]}
